# Results taken from PubChem BioAssay (EPA / NIEHS).
# This is a selection; strong and weak results do not stand in their true shares. Activity calls are given as the source filed them. How the source made its calls: active means hit-call score of the fitted dose curve at least 0.9, where 1 is the maximum; inactive means score below 0.9.
# Test: CEETOX_H295R_TESTO: CeeTox H295R High-throughput Steroidogenesis Assay for Testosterone (TESTO) (AID 2283457)
# Details: actives raise or lower the signal
# Outline: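 Testosterone secreted into the medium over 48 h by H295R cells (maximum passage 10) was quantified by LC-MS/MS after MTBE extraction. Fitted in both directions against DMSO, with concentrations diluted until MTT viability was ≥70%.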
compound,measurement,value
O=C1C2CC=CCC2C(=O)N1SC(Cl)(Cl)C(Cl)Cl (stereo unspecified),outcome,inactive
